AlphaSeq binding of Ab-14 light chain variants to a spike HR2 peptide

The measurements come from Li et al. 2023 (doi:10.1038/s41467-023-39022-2) through the FLAb antibody collection.

All variants were tested on one target, the spike HR2 peptide PDVDLGDISGINAS (SARS-CoV-2).

Ab-14 is the parent antibody, in scFv form: VH, then a 15-residue (Gly4Ser)3 linker, then VL. The heavy chain is unchanged in all variants.
VH: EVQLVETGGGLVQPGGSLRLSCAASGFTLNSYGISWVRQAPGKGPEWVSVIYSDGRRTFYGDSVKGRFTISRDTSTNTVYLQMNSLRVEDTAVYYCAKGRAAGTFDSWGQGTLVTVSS
VL: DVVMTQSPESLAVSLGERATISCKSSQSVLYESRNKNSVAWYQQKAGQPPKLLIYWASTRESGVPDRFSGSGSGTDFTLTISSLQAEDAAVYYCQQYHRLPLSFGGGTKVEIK

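Phage display of a naive human antibody library on the peptide gave the parent. This is the validation round: designs drawn from the data on random variants, tested in the same kind of assay. Several design methods are mixed in this list. Affinity was read by AlphaSeq, a pooled yeast mating assay with surface-displayed partners. Pairs that bind mate more often; barcode pairs of the diploids are counted by sequencing. A regression on co-assayed BCL2-family reference pairs converts the normalised counts of each replicate to an apparent Kd. Each pool was mated in six replicate cultures.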

Each variant is given by its three light chain CDRs, as the data file delimits them; those of the parent are KSSQSVLYESRNKNSVA, WASTRES, QQYHRLPLS. This list holds designs with more than six substitutions. Values are log10 of the apparent Kd in nM; lower means stronger binding. An entry "ND" has no value in the source: the pair was not observed among the diploids in that replicate. This suggests poor binding but is not conclusive. Three control strains display no target. For all light chain designs, 4% of the pairings with them gave a signal, with a median of 2.64 and one signal in twenty below 1.59, so weak values seen in few replicates may be background.

Variant NFSMELEDMGVKTKSIA | ENQLTEY | QQYAKLPLM showed ND, ND, ND, ND, 1.09, ND.
Variant KISQMVRVGSTKQNSIA | EEETRAD | QQYHRLPLS showed 0.52, 0.33, 0.57, 0.30, 0.23, 0.61.
Variant KISQMVRVGSTHGNSIA | EEATRAK | QQYHRLPLA showed ND, 1.17, 1.76, 0.61, 1.12, 1.26.
Variant KIGMTLNQLQHKKNNVA | DLVTREQ | QQYHRLPLS showed 0.30, 0.10, 0.11, 0.06, 0.11, 0.28.
Variant KCDQSQDYESRNKNNVA | NASQRED | QQYHRLPLS showed -0.13, -0.30, -0.11, -0.37, -0.20, -0.14.
Variant KLSNWQFDSYGNKESVA | ENEATSN | QQYSLLPLS showed ND, ND, ND, ND, ND, ND.
Variant KLEEDALYESRNKNSVA | QASTREV | QQYHRLPLS showed -0.33, -0.27, -0.34, -0.53, -0.58, -0.23.
Variant KFFQSELDEMRNDNSVA | SASTRLS | QQYHRLPLS showed 0.88, 0.10, 0.29, 0.15, 1.09, 1.25.
Variant KLHQSDLYESRNINSVA | NASQRCS | QQYHRLPLS showed -0.15, -0.37, -0.41, -0.21, -0.17, -0.13.
Variant MMSQVSGQGTRHRNNVA | QTSTREP | QQYDRLPLV showed 0.73, 0.60, 0.82, 0.27, 1.00, 0.70.
Variant KLSMSWLYESRNWNSVA | NASLRES | QDYHRLPLS showed 0.79, 0.66, 0.64, 0.46, 0.45, 0.83.
Variant TITQSAQMESHNKNSVA | DLNVRGN | QQYDRLPLS showed ND, ND, ND, ND, ND, ND.
Variant SLAYTQHFGQSGGSAVA | EVQMREQ | QQYFRLPLG showed 1.81, 1.22, 1.43, 0.92, 1.10, 1.08.
Variant TFNLEYQGTNEKHQNIA | EVENKTD | QQYVRLPLI showed 1.71, 1.31, 2.36, 1.07, 1.84, 2.92.
Variant KVSQQMLYESRNANSVA | NASQREE | QQYHRLPLS showed 0.04, -0.08, -0.39, -0.35, -0.27, -0.16.
Variant KLSSVTGTEKVHGNNVA | EMETRER | QQYNRLPLA showed 0.35, 0.39, 0.08, -0.10, -0.04, 0.30.
Variant MISQLHNMGTFAINSVA | QASIRNA | QQYDRLPLI showed ND, ND, ND, ND, ND, ND.
Variant IVTYAQNDNSLYTNNIA | EGENTLA | QQYFRLPLM showed 1.47, 1.30, 1.13, 1.26, 1.54, 1.55.
Variant ALGDVTRMESNKKNSIA | DMNTRES | QQYHRLPLS showed 0.62, 0.38, 0.22, 0.30, 0.54, 0.31.
Variant NIVGRVEDKQTTTANIA | DAELRAG | QQYSRLPLS showed 0.68, 0.77, 0.39, 0.49, 0.34, 0.82.
Variant KEQNDSLFMGQYDNNIA | NTSLRTE | QQYYQLPLT showed 0.86, ND, -0.29, -0.03, -0.43, 0.26.
Variant KLSQGWLYESRNCNSVA | NASQREE | QQYHRLPLS showed -0.05, 0.09, 0.18, -0.09, -0.25, 0.04.
Variant TLVQSVMSGSRTKNSVA | NAEMRYD | QHYHRLPLS showed 0.64, 0.31, 0.43, 0.40, 0.56, 0.44.
Variant KLSNSVWMESRMKNQVA | EASTREM | QQYHRLPLS showed 0.26, 0.02, -0.15, -0.10, -0.03, 0.10.
Variant KLSMITGHLSIAKNNVA | EMETREN | QQYDRLPLS showed 0.15, 0.74, 0.80, 0.89, 0.36, 0.94.
Variant KLSMITGHMSVEKNNVA | EMETREN | QQYDRLPLS showed 1.58, 1.62, 0.98, 1.96, 2.69, 1.18.
Variant MISDLTYMGLRNVNSVA | DLSTRGN | QQYDRLPLS showed 0.50, 0.38, 0.85, 0.42, 0.61, 0.71.
Variant QLGKNQVGETLMQDAIA | HDALRAD | QQYFRLPLL showed 0.57, 0.65, 0.77, 0.51, 0.73, 0.83.
Variant NISHFMDVTAKHNNNVA | EMTMRET | QQYHHLPLS showed 1.76, 1.50, 1.27, 1.58, 1.40, 1.65.
Variant NLSISMLHESINKHSVA | EVRTREK | QQYDRLPLS showed 1.07, 1.54, 0.83, 0.84, 0.91, 1.40.
Variant KIMQSLNYESFMKNSVA | GQETRES | QSYHRLPLS showed 1.40, 1.48, 1.05, 1.95, 1.74, 1.32.
Variant HINTLDVGVSDHYNAVA | EQRIAGI | QQYFRLPLS showed 1.41, 0.72, 0.71, 0.81, 1.38, 0.78.
Variant IVSQLMLWGMHVKNSIA | EAQTRVN | QQYDRLPLI showed ND, ND, 1.84, ND, ND, 1.91.
Variant HMSQVTMYGMWMRNSVA | QTSTRET | QQYDRLPLS showed 1.19, 1.02, 1.31, 0.98, 0.96, 1.20.
Variant TLSDLMYMESRNVNNVA | DLVKRES | QQYHRLPLS showed 1.09, 1.92, 1.03, 0.60, 1.23, 0.75.
Variant MISQLYNMGQFAINSVA | QASQRNA | QQYDRLPLI showed 1.04, 0.82, 1.26, 0.89, 1.43, 1.77.
Variant ALSMSELMESRNWNSVA | HASTREE | QQYHRLPLS showed 0.20, -0.06, 0.04, -0.06, 0.09, 0.03.
Variant NVGGEDPGQWGMKDSIA | GSSLRAE | QQYWRLPLL showed 0.36, 0.43, 0.29, 0.16, 0.26, 0.35.
Variant SLTSHEEEKEGAEASVA | NAVMLES | QQYHRLPLM showed 0.89, 1.14, 1.20, 0.61, 0.62, 1.77.
Variant KLSQSVLFWGGAINSVA | EMETREY | QQYDRLPLS showed 1.36, 1.99, 0.73, 1.27, 1.63, 2.10.
Variant KLSMLTEMEHKNRNSVA | ELVTRMS | QQYNRLPLS showed 0.62, 0.51, 0.34, 0.40, 0.47, 0.68.
Variant KVSNSVDGEDRNKNAVA | DASTRES | QQYHRLPLS showed -0.19, -0.27, -0.34, -0.26, -0.32, -0.18.
Variant QLEFEDVQGTAKWHAIA | EGSQLAQ | QQYFHLPLG showed 1.09, 1.11, 0.92, 1.15, 0.98, 0.94.

The last 6 entries again:

CDR-L1	CDR-L2	CDR-L3	log10 Kd, replicates
NVGGEDPGQWGMKDSIA	GSSLRAE	QQYWRLPLL	0.36, 0.43, 0.29, 0.16, 0.26, 0.35
SLTSHEEEKEGAEASVA	NAVMLES	QQYHRLPLM	0.89, 1.14, 1.20, 0.61, 0.62, 1.77
KLSQSVLFWGGAINSVA	EMETREY	QQYDRLPLS	1.36, 1.99, 0.73, 1.27, 1.63, 2.10
KLSMLTEMEHKNRNSVA	ELVTRMS	QQYNRLPLS	0.62, 0.51, 0.34, 0.40, 0.47, 0.68
KVSNSVDGEDRNKNAVA	DASTRES	QQYHRLPLS	-0.19, -0.27, -0.34, -0.26, -0.32, -0.18
QLEFEDVQGTAKWHAIA	EGSQLAQ	QQYFHLPLG	1.09, 1.11, 0.92, 1.15, 0.98, 0.94

A sequence measured in both rounds can read differently, since the two assays cover different ranges. The authors' rule: three or more of the six replicates give a measured affinity, fewer mean a poor binder.